In the series the test system is β2AR expressing cells. To be noted: mitomycin treatment for 2 hours of β2AR expressing HEK293 cells.

Regarding `CO[C@@]12[C@H](COC(N)=O)C3=C(C(=O)C(C)=C(N)C3=O)N1C[C@@H]1N[C@@H]12` [Miyotmycin C, mitomycin C], the toxicity to cells entry was “significant toxicity”.
